Earlier results in US6565840B1, “Monomeric compositions effective as wound closure devices” (Closure Medical Corporation, priority 1996, dated 2003).
Some compounds may have been tested in ways that are not shown here.

With `O=[N+]([O-])c1cc([N+](=O)[O-])c(O)c([N+](=O)[O-])c1` as the compound, how does the pKa read?
Its pKa is 0.3.
